From US20210244738A1, “COMPOSITIONS AND METHODS FOR SUPPRESSING NONSENSE MUTATIONS” (The UAB Research Foundation, priority 2018, published 2021)

Key:
Idua-W402X MEFs [1] = experiment: MEF α-L-iduronidase activity assay in Idua-W402X MEFs; assay type: cell-based, mouse; conditions: for effect on α-L-iduronidase activity over the concentrations indicated: 48 hours (FIG. 3A, 3B, 7C, 7E); for α-L-iduronidase activity relative to background levels / α-L-iduronidase activity restored compared with G418: 60 μM or 30 μg/ml, 48 hours (FIG. 2); for synergy with G418 or PTC124 on α-L-iduronidase activity: combined with G418 or PTC124 (FIG. 3A, 3B)
Idua-W402X MEFs [2] = experiment: MEF glycosaminoglycan quantitation (Blyscan) in Idua-W402X MEFs; assay type: cell-based, mouse; conditions: 48 hours; for effect on GAG accumulation: dye-binding assay (FIG. 4, 7D)
Description: MEFs were seeded into 6-well culture dishes at a density of 5×10^4 cells per well. MEFs were grown to 50% confluency and then treated with screening agents for 48 hours. Subsequently, the media was removed and the cells were scraped into 500 μl of 0.2 mg/ml papain in pH 6.5 phosphate buffer containing 0.6 mg/ml cysteine. The cell lysates were incubated in the papain solution at 65° C. with gentle agitation for 3 hours. Samples were briefly microfuged to remove debris. […] Briefly, 50 μl of each supernatant was mixed with 500 μl of the Blyscan Dye Reagent to bind sulfated GAGs. The dye-bound GAGs were pelleted by microfuging for 10 minutes at 10,000 g at room temperature. 500 μl of the Blyscan Dye Dissociation Reagent was added to each sample to dissociate the GAGs from the dye. 200 μl of each sample was transferred to a 96-well plate (Corning 3631) and the absorbance was measured at a wavelength of 650 nm absorbance using a GloMax® Discover System (Promega). […] The total protein concentration in each lysate was determined using the Bio-Rad Protein Assay from a standard curve generated using bovine serum albumin. The GAG levels are expressed as nanograms of GAGs per milligram of total protein.

[3] = system: Idua-W402X dual luciferase reporter in HEK293 cells; experiment: Idua-W402X dual luciferase readthrough reporter in HEK293 cells; assay type: cell-based; conditions: 24 hours (FIG. 5B)
Idua-W402X mice [4] = experiment: GAG quantitation in tissues of Idua-W402X mice after oral triamterene; conditions: two weeks
Idua-W402X mice [5] = experiment: Specific GAGs in urine of Idua-W402X mice by mass spectrometry; assay type: in vivo, mouse; conditions: 120 mg/kg once daily oral gavage, 2 weeks
Description: Doses ranged from 30-120 mg/kg.
Urine samples were collected at the end of treatment and subjected to mass spectrometry analysis to quantify the levels of dermatan sulfate (FIG. 9A), heparan sulfate (FIG. 9B), and chondroitin sulfate (FIG. 9C).

[6] = system: Idua mRNA in Idua-W402X MEFs; experiment: Steady state Idua mRNA by qPCR in Idua-W402X MEFs; assay type: cell-based, mouse; conditions: 48 hours, relative to vehicle only

| SMILES | effect on α-L-iduronidase activity over the concentrations indicated (Idua-W402X MEFs [1]) | effect on GAG accumulation (Idua-W402X MEFs [2]) | α-L-iduronidase activity relative to background levels (Idua-W402X MEFs [1]) | α-L-iduronidase activity restored compared with G418 (Idua-W402X MEFs [1]) | synergy with G418 or PTC124 on α-L-iduronidase activity (Idua-W402X MEFs [1]) | GAG level reached relative to wildtype cells (Idua-W402X MEFs [2]; dye-binding assay (FIG. 4)) | Idua-W402X readthrough relative to basal levels [3] | tissue GAGs relative to wildtype levels (Idua-W402X mice [4]; 120 mg/kg once daily oral gavage, all tissues examined) | tissue GAGs relative to vehicle controls (Idua-W402X mice [4]; 30-120 mg/kg once daily oral gavage, bone, brain, heart, kidney, liver, lung, spleen) | chondroitin sulfate in urine (Idua-W402X mice [5]) | dermatan sulfate in urine compared to untreated controls (Idua-W402X mice [5]) | heparan sulfate in urine compared to untreated controls (Idua-W402X mice [5]) | increase of Idua mRNA levels [6] | effect of co-administration on the ability of triamterene to relieve MPS I-H biochemical endpoints (Idua-W402X MEFs [1]; thiazide combined with triamterene, 48 hours (FIG. 7E)) |
| --- | --- | --- | --- | --- | --- | --- | --- | --- | --- | --- | --- | --- | --- | --- |
| N=C(N)NC(=O)c1nc(Cl)c(N)nc1N [amiloride] | did not generate a significant, dose-dependent increase in α-L-iduronidase activity | did not reduce GAGs | – | – | – | – | – | – | – | – | – | – | – | – |
| Nc1nc(N)c2nc(-c3ccccc3)c(N)nc2n1 [Triamterene, 2,4,7-triamino-6-phenylpteridine] | increased α-L-iduronidase activity in a dose-dependent manner | dose-dependent decrease in GAG accumulation | increased α-L-iduronidase activity above background levels | restored more α-L-iduronidase activity than the potent, but toxic, aminoglycoside G418 | synergy was not observe | reducing GAGs to near wildtype levels | dose-dependent increase in Idua-W402X readthrough | reduced GAGs to wildtype levels in all tissues examined | dose-dependent decrease in GAGs | remained unchanged | significantly decreased | significantly decreased | – | – |
| COc1cc2nc(N3CCN(C(=O)C4COc5ccccc5O4)CC3)nc(N)c2cc1OC (stereo not shown) [Doxazocin] | increased α-L-iduronidase activity in a dose-dependent manner | dose-dependent decrease in GAG accumulation | increased α-L-iduronidase activity above background levels | restored more α-L-iduronidase activity than the potent, but toxic, aminoglycoside G418 | synergy was not observe | – | no significant increase in readthrough relative to basal levels | – | – | – | – | – | ~2 fold | – |
| O=C(CCCCCCC(=O)Nc1ccccc1)NO [vorinostat] | – | – | increased α-L-iduronidase activity above background levels | – | – | – | – | – | – | – | – | – | – | – |
| NS(=O)(=O)c1cc2c(cc1Cl)NCNS2(=O)=O [thiazide] | did not affect | did not affect | – | – | – | – | – | – | – | – | – | – | – | did not inhibit the ability of triamterene to relieve these MPS I-H biochemical endpoints |
